Literature values in patent US20070254881A1, “Pyrazole Derivative” (DAIICHI PHARMACEUTICAL CO., LTD., priority 2004, published 2007).
pIC50: −log10 of the molar value.

By UniProt entry, the sequences of proteins in these tests, tags left out. Residues count along the entry.
UniProt P35354, 18-604: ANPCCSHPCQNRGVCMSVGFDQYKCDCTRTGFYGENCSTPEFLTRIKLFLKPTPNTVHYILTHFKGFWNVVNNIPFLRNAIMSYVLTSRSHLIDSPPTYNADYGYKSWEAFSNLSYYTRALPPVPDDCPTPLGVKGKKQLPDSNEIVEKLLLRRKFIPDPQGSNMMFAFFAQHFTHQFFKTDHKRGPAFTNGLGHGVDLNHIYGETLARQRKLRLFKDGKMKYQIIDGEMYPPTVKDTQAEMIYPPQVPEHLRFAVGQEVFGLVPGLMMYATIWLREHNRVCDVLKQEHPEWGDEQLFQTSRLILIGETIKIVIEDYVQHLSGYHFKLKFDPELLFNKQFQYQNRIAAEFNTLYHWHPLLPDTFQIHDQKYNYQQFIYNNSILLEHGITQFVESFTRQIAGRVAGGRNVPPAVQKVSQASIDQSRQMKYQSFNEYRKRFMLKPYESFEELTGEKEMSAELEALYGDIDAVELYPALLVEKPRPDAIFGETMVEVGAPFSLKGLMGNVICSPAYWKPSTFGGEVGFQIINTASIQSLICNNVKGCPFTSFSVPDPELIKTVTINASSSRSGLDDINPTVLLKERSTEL

Target: COX-2 (Homo sapiens, UniProt P35354)
Settings: read-out: inhibitory activity against COX-2 (IC50); cited from earlier work

## CS(=O)(=O)c1ccc(-c2cc(C#N)nn2-c2ccc(F)cc2)cc1 [compound (A)]
  pIC50: 6.62
